Measured affinities in a library of Ab-14 heavy chain variants

Data: MIT Lincoln Laboratory AlphaSeq set, Engelhart et al. 2022, doi:10.1038/s41597-022-01779-4, as distributed in FLAb.

Target peptide (SARS-CoV-2 spike, HR2 region): PDVDLGDISGINAS

Parent scFv Ab-14: VH joined to VL by three GGGGS repeats. Changes lie in the heavy chain CDRs alone.
VH: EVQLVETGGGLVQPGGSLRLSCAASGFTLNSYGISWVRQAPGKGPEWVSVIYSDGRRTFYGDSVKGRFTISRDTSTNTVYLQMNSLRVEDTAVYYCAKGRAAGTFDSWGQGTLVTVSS
VL: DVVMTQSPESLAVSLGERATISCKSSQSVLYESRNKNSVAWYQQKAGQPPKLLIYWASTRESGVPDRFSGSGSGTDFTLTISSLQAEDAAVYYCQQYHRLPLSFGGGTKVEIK

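In library AAYL49, one, two or three CDR residues were substituted; doubles and triples were drawn at random. The assay is AlphaSeq: two haploid yeast populations carry antibody and antigen on their surface. The frequency of each diploid, read from paired DNA barcodes, reflects how well the two displayed proteins bind. The ratio of observed to expected reads was calibrated, replicate by replicate, on BCL2-family standards whose Kd was known from biolayer interferometry. Each pool was mated in three replicate cultures.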

Each variant is given by its three heavy chain CDRs, as the data file delimits them; those of the parent are GFTLNSYGIS, VIYSDGRRTFYGDSVK, GRAAGTFDS. Every variant below is changed at S63 of the VH (sequential numbering). The Kd shown is the geometric mean over detected replicates; a lower Kd is a better binder. "nd" marks a missing value. The strain was present, yet no cells mated with the target were sequenced in any replicate, which points to weak or no binding. Empty control strains, which show no peptide, gave a signal in 15% of pairings with library AAYL49; the median was 11 µM and 95% of these signals were weaker than 680 nM. No background was subtracted. Also given: how often the same scFv was detected with the empty control strains.

The variant GFTLNSYGIS / VIYSDGRRTFYGMDVK / GRAAGTFDS gave 48 nM (3 of 3 replicates; controls 0 of 9).
The variant GFTLNSYGIS / VIYSDGRRTFVGDHVK / GRWAGTFDS gave 1.1 µM (1 of 3 replicates; controls 0 of 9).
The variant GFTLNSYGIS / VIYSDGRRTFYGDEFK / SRAAGTFDS gave 56 nM (3 of 3 replicates; controls 2 of 9).
The variant GFTLNSYGIS / VIYSDGRRTFYGDRVK / GRAAGTPDS gave 21 µM (1 of 3 replicates; controls 4 of 9).
The variant GFTLNSYGIS / VIYSDGRRTFYGEIVK / GRAPGTFDS gave nd (0 of 3 replicates; controls 0 of 9).
The variant GQTLNSYGIS / VIYSDGRRTKYGDQVK / GRAAGTFDS gave 13 µM (1 of 3 replicates; controls 4 of 9).
The variant GFTLNSYGIS / PIYSDGRRTFYGDVVK / GRAAGLFDS gave nd (0 of 3 replicates; controls 2 of 9).
The variant GFYLNSYGIS / VIYSDGRRGFYGDQVK / GRAAGTFDS gave 630 µM (1 of 3 replicates; controls 0 of 9).
The variant VFTLNSYGIS / VIYSDGRRTFYGDNVM / GRAAGTFDS gave 3.5 µM (2 of 3 replicates; controls 1 of 9).
The variant GFTLNSYGGS / GIYSDGRRTFYGDRVK / GRAAGTFDS gave 120 µM (1 of 3 replicates; controls 0 of 9).
The variant GFTLNSYGIS / VIYSDGRRTFYGVDVK / GRAAVTFDS gave 73 nM (3 of 3 replicates; controls 0 of 9).
The variant GFELNSYGIV / VIYSDGRRTFYGDNVK / GRAAGTFDS gave 89 nM (3 of 3 replicates; controls 4 of 9).
The variant VLTLNSYGIS / VIYSDGRRTFYGDYVK / GRAAGTFDS gave 21 µM (1 of 3 replicates; controls 2 of 9).
The variant GFTLNSYGES / VIGSDGRRTFYGDYVK / GRAAGTFDS gave 12 µM (2 of 3 replicates; controls 0 of 9).
The variant GFTLNSAGIS / VIYSDGRRTFYHDTVK / GRAAGTFDS gave 15 µM (3 of 3 replicates; controls 3 of 9).
The variant GFTVNSYGIH / VIYSDGRRTFYGDHVK / GRAAGTFDS gave 29 µM (3 of 3 replicates; controls 2 of 9).
The variant GFTDNSYGIS / VIYSHGRRTFYGDDVK / GRAAGTFDS gave 400 nM (1 of 3 replicates; controls 4 of 9).
The variant GFTLNFYGIS / VIYSDGRRTFYGDYVK / GRAGGTFDS gave 1.0 µM (2 of 3 replicates; controls 2 of 9).
The variant GFTLNSYGIS / VIYSDNRRTFYGDRVK / GRAAGTFDS gave nd (0 of 3 replicates; controls 2 of 9).
The variant GFTLNSDGIS / VIYSDGRRTFYGDTVK / GRGAGTFDS gave nd (0 of 3 replicates; controls 1 of 9).
The variant GFTLNPYGIS / VIYSDGRRTFYGDCVK / ARAAGTFDS gave nd (0 of 3 replicates; controls 2 of 9).
The variant GFTLNSYGIS / VIYVDGRRTFYGDLKK / GRAAGTFDS gave nd (0 of 3 replicates; controls 0 of 9).
The variant GFTLNSYGIS / VIYSDGRRTFYGDDVV / GRAAGTFDS gave 50 nM (3 of 3 replicates; controls 0 of 9).
The variant GFTCNSYGIT / VIYSDGRRTFYGDEVK / GRAAGTFDS gave nd (0 of 3 replicates; controls 1 of 9).
The variant GFTLQSYGIS / VIYSDGRRTFYGDYVN / GRAAGTFDS gave nd (0 of 3 replicates; controls 1 of 9).
The variant CFTLNSYGIS / VIYSDGRRTFYGDDVK / GRAMGTFDS gave 380 nM (1 of 3 replicates; controls 0 of 9).
The variant GFTLNSYGIN / VGYSDGRRTFYGDCVK / GRAAGTFDS gave 110 µM (1 of 3 replicates; controls 2 of 9).
The variant GFTENSFGIS / VIYSDGRRTFYGDCVK / GRAAGTFDS gave nd (0 of 3 replicates; controls 3 of 9).
The variant GFTLNSYGIS / VIYSDGRRTFYGDQVK / GRAAGTFDS gave 8.0 nM (3 of 3 replicates; controls 0 of 9).
The variant GFTLNSYGIS / VIYSDGRSTFYGDVVK / GRAAGTFDS gave nd (0 of 3 replicates; controls 1 of 9).
The variant GFTLNSYGIS / VIYSDGRRAFYGDTVK / GRAAGTFDN gave 110 nM (3 of 3 replicates; controls 0 of 9).
The variant GFTLNSYGIS / APYSDGRRTFYGDNVK / GRAAGTFDS gave nd (0 of 3 replicates; controls 0 of 9).
The variant GFTHNSYGIS / VIYSDGRRTFYGDGVK / GRAATTFDS gave 250 µM (1 of 3 replicates; controls 2 of 9).
The variant GAYLNSYGIS / VIYSDGRRTFYGDAVK / GRAAGTFDS gave 5.0 µM (3 of 3 replicates; controls 6 of 9).
The variant GFTLNSYGIS / VIYSDGRRTFYGDAVK / GRAAGLFDF gave 84 nM (3 of 3 replicates; controls 4 of 9).
The variant GETLNSYGIS / VIYSDGRRTFYGDQVK / GRNAGTFDS gave 3.1 nM (3 of 3 replicates; controls 0 of 9).
The variant GFTLNSYGIS / VIYSDGRRTFYGDKVA / GRAAGTFYS gave 630 nM (3 of 3 replicates; controls 5 of 9).